Reference: patent publication EP1951748B1, “HEPATITIS C VIRUS VARIANTS” (Vertex Pharmaceuticals, Inc., priority 2005, dated 2007)
“And” between values parts separate entries of the source, which are not always exact repeats. Identical values can stand only once.

Test system: genotype 1 HCV
Experiment: Phase 1b clinical trial (Study VX04-950-101), plasma HCV RNA
Conditions: 14 days, one value per subject

## CCC[C@H](NC(=O)[C@@H]1[C@H]2CCC[C@H]2CN1C(=O)[C@@H](NC(=O)[C@@H](NC(=O)c1cnccn1)C1CCCCC1)C(C)(C)C)C(=O)C(=O)NC1CC1 [VX-950]
Dose 450 (mg q8h)
  Δ in VL (Log change in HCV RNA from nadir to Day 14 (end of dosing)): 2.08 and 2.56 and 2.09
Dose 750 (mg q8h)
  Δ in VL (Log change in HCV RNA from nadir to Day 14 (end of dosing)): 2.35
Dose 1250 (mg q12h)
  Δ in VL (Log change in HCV RNA from nadir to Day 14 (end of dosing)): 0.86 and 2.50 and 2.25
